Measurements taken from patent US8959984B2, “Proteome-wide quantification of small molecule binding to cellular target proteins” (priority 2007, dated 2015).

Protein sequences, listed by entry. Tags and fused reporters are not part of them. Lines headed by an entry give the natural chain unless they say otherwise; changes in a name come on top.
UniProt Q07002: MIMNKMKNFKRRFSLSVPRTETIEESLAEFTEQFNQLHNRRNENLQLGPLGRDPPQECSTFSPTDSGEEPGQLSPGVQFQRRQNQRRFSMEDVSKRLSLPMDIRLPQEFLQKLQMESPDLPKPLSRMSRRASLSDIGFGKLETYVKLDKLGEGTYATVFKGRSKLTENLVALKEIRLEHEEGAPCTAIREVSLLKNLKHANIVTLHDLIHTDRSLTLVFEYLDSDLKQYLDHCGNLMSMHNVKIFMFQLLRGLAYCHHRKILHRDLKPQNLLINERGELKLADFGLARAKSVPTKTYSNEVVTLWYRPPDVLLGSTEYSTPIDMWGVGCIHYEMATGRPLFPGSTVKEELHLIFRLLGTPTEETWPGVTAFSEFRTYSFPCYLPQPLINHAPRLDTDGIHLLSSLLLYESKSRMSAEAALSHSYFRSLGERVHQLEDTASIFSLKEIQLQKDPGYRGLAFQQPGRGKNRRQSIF
UniProt Q00537: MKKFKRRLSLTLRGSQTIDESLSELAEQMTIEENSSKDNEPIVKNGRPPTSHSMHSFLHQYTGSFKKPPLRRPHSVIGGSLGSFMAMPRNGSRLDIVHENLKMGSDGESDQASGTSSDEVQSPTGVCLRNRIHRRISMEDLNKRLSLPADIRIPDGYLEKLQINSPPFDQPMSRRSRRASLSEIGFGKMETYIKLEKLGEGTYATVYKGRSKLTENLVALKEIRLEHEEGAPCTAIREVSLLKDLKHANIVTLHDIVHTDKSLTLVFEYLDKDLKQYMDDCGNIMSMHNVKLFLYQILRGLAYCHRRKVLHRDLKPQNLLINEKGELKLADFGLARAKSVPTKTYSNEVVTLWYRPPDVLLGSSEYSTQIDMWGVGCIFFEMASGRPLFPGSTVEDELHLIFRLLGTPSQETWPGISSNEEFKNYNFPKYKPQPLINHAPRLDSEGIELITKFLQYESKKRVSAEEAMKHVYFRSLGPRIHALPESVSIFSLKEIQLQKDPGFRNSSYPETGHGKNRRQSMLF
UniProt Q9BVS4: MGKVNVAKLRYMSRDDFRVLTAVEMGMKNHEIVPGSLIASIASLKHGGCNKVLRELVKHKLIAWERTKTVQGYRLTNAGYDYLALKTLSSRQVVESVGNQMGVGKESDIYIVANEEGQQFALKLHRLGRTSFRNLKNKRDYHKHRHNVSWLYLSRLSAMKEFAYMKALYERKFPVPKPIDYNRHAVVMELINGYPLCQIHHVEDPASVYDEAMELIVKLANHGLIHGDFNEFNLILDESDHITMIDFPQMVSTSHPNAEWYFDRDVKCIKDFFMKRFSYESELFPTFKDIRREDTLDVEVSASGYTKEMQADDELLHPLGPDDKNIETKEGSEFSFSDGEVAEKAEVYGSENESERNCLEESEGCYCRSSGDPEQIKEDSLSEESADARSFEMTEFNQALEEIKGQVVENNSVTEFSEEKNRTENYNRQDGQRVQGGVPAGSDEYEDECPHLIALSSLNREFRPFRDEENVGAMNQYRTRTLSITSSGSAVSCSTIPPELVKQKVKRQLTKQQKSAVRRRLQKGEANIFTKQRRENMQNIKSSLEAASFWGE
UniProt O75676: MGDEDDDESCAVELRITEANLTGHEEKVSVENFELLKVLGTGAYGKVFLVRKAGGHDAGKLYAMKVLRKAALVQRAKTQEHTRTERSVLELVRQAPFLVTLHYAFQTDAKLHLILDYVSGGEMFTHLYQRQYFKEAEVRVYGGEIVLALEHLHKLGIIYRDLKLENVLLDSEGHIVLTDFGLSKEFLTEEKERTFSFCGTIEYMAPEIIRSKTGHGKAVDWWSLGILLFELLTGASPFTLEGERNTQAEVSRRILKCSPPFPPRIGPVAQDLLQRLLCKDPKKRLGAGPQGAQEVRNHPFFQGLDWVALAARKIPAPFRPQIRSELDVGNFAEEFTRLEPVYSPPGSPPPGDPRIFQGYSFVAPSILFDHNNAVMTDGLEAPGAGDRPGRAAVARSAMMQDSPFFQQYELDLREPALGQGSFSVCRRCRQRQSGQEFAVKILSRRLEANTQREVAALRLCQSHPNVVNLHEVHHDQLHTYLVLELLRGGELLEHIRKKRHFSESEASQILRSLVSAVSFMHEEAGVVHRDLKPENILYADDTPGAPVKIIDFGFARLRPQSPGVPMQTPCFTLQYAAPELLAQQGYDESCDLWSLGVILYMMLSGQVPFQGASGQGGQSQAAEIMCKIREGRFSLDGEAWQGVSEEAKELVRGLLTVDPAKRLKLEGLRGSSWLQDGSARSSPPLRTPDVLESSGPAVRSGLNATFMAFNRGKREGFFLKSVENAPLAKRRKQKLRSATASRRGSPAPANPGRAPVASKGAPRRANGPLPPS
UniProt P06493, whole entry: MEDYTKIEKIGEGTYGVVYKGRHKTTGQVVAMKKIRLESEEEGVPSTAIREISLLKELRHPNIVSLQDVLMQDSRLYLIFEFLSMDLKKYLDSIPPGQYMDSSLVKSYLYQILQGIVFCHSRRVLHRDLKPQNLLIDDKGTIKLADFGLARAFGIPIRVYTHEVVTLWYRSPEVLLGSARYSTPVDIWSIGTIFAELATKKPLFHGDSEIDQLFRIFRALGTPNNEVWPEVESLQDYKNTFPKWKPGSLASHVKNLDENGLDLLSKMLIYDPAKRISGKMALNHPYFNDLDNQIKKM
UniProt P29597: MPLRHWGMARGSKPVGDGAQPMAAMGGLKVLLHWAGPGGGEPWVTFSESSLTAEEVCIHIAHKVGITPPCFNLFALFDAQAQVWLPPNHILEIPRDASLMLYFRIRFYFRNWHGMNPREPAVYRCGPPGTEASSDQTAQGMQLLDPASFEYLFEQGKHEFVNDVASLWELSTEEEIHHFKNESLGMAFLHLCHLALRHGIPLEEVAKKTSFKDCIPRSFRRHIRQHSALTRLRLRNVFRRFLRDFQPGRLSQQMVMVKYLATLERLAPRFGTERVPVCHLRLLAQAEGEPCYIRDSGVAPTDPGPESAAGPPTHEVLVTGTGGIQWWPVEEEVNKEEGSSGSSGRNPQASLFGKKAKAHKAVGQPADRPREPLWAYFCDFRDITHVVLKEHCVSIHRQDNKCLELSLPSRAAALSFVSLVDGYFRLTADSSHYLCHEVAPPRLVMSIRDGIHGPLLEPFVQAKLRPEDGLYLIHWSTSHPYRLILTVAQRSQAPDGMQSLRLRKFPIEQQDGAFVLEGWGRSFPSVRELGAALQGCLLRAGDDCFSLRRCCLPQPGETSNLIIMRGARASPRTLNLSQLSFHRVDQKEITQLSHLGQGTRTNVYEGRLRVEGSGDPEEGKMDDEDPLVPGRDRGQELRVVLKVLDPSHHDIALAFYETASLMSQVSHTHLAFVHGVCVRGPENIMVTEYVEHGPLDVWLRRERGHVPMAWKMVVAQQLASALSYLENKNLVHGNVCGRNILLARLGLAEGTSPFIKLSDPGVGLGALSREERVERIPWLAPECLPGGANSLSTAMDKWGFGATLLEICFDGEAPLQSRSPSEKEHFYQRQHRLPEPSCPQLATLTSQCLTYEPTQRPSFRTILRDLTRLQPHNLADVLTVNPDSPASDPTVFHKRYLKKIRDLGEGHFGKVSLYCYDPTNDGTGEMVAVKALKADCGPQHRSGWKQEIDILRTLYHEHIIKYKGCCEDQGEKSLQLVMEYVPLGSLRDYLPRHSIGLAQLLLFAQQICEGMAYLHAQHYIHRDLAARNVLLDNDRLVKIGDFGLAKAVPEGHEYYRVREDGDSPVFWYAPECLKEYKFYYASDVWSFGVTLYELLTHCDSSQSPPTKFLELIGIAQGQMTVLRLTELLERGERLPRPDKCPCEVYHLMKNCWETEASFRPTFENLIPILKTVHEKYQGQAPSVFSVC
UniProt Q99755: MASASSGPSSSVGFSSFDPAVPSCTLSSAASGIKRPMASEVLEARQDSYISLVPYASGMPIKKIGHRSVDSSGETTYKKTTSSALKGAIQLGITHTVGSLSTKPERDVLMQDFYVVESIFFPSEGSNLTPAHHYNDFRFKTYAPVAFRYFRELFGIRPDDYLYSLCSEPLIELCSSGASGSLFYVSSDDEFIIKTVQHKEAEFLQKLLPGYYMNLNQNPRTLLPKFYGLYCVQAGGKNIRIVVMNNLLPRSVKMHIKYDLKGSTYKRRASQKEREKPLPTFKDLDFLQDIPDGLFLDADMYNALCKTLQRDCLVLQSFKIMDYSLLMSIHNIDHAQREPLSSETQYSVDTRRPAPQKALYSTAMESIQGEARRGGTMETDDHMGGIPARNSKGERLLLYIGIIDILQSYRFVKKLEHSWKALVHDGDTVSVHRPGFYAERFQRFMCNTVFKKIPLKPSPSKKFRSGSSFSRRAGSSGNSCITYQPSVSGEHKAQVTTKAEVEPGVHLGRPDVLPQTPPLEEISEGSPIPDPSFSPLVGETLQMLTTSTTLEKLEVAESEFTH
UniProt P54646: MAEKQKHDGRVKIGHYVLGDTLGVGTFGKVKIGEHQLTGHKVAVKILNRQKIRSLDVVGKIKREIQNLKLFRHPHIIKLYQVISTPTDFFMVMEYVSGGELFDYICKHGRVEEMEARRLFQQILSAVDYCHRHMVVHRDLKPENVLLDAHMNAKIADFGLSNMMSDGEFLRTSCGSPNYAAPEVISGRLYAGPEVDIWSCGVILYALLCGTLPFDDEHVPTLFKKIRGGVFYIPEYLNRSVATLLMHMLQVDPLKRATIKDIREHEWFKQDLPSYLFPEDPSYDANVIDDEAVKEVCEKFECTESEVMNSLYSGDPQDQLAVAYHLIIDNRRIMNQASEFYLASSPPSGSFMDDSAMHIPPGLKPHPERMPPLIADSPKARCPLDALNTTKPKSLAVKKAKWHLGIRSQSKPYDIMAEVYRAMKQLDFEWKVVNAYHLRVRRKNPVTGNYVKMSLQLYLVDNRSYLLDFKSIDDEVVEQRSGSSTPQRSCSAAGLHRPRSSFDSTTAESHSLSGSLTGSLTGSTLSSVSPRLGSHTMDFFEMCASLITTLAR
UniProt P48730: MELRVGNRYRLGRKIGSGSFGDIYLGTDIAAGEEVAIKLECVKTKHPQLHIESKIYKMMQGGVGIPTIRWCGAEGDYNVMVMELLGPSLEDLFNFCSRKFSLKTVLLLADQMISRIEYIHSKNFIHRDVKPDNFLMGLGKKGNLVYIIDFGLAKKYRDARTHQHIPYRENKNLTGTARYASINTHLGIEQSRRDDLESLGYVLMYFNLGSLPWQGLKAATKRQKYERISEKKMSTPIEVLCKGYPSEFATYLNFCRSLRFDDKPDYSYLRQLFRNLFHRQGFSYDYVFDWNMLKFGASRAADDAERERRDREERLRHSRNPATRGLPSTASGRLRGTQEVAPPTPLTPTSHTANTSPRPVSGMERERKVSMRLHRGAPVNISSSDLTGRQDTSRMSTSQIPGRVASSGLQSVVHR
UniProt P42684, whole entry: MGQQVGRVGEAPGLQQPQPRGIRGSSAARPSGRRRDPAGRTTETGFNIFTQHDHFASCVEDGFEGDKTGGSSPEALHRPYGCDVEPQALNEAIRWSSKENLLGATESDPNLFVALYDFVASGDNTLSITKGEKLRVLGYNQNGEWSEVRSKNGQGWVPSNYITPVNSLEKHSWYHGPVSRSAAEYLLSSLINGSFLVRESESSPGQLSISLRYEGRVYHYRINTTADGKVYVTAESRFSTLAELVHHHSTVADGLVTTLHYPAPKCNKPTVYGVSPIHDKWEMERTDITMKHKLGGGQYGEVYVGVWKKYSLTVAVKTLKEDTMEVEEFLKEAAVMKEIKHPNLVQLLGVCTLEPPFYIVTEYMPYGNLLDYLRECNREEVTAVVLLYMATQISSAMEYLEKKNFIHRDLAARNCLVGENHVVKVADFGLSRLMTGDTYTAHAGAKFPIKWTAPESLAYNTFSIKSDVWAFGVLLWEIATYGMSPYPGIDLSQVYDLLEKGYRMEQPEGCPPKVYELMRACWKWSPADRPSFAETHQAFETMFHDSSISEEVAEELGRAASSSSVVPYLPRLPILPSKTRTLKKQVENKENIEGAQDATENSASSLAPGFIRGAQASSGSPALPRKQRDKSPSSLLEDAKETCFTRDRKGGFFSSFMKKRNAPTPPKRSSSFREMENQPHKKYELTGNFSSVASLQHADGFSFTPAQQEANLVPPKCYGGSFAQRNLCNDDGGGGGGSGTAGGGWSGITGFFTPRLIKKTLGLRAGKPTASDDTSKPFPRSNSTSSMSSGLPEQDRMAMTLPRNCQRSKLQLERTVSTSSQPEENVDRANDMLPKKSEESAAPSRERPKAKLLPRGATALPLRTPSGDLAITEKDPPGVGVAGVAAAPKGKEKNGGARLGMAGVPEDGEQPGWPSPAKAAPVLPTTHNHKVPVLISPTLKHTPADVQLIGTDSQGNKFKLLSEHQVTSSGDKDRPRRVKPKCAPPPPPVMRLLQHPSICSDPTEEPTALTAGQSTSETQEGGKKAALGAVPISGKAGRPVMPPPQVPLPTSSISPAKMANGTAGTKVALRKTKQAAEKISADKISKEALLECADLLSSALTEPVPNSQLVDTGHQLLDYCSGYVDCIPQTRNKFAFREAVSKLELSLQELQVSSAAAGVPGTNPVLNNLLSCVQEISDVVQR

How the values were obtained:
Test in all cases: Ki determination for immobilized VI16742: two consecutive incubations, control beads, ligand concentration and incubation time controls (Tables 7, 8)
Format in all cases: binding
[1] = molecular target: cellular target proteins in HeLa cell lysate (Homo sapiens, UniProt Q07002); settings: Ki (VI16742), PCTAIRE3 (PCTK3) IPI00414292
[2] = molecular target: cellular target proteins in HeLa cell lysate (Homo sapiens, UniProt Q00537); settings: Ki (VI16742), PCTAIRE2 (PCTK2) IPI00376955
[3] = molecular target: cellular target proteins in HeLa cell lysate (Homo sapiens, UniProt Q9BVS4); settings: Ki (VI16742), RIOK2 IPI00306406
[4] = molecular target: cellular target proteins in HeLa cell lysate (Homo sapiens, UniProt O75676); settings: Ki (VI16742), MSK2 (RPS6KA4) IPI00022536
[5] = molecular target: cellular target proteins in HeLa cell lysate (Homo sapiens, UniProt P06493); settings: Ki (VI16742), CDC2 IPI00026689
[6] = molecular target: cellular target proteins in HeLa cell lysate (Homo sapiens, UniProt P29597); settings: Ki (VI16742), TYK2 IPI00022353
[7] = molecular target: cellular target proteins in HeLa cell lysate (Homo sapiens, UniProt Q99755); settings: Ki (VI16742), PIP5K1A IPI00022150
[8] = molecular target: cellular target proteins in HeLa cell lysate (Homo sapiens, UniProt P54646); settings: Ki (VI16742), AMPKa2 (PRKAA2) IPI00307755
[9] = molecular target: cellular target proteins in HeLa cell lysate (Homo sapiens, UniProt P48730); settings: Ki (VI16742), CK1d (CSNK1D) IPI00234463
[10] = molecular target: cellular target proteins in HeLa cell lysate (Homo sapiens, UniProt P42684); settings: Ki (VI16742), ARG (ABL2) IPI00329488
[11] = molecular target: T1, cellular target proteins in HeLa cell lysate (Homo sapiens, UniProt Q709F0); settings: Ki (VI16742), ACAD11 IPI00420065
T1 sequence (Q709F0 1-780): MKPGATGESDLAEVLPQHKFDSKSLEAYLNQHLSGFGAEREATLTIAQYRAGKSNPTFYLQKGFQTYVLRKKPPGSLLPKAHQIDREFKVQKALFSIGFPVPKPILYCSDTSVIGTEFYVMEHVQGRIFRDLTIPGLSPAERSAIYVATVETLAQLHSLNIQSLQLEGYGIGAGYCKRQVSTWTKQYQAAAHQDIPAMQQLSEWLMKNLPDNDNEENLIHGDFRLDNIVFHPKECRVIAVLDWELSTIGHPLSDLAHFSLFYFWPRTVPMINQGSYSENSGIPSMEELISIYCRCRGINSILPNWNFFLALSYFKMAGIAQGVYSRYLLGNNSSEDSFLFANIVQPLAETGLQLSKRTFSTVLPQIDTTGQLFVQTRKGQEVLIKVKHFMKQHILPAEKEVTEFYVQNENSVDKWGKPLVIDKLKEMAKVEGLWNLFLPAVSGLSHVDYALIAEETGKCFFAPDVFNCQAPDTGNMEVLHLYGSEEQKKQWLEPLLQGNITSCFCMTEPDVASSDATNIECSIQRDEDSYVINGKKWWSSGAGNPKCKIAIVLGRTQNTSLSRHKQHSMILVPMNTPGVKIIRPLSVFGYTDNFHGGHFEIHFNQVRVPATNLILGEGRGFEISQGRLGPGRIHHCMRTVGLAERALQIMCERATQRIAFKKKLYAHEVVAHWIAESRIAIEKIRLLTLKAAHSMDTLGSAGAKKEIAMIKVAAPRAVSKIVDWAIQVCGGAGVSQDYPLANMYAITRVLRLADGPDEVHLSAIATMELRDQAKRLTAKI

**Q.** For CC(C)n1c(=O)ccc2cnc(Nc3ccc(OCCN)cc3)nc21 [V16742], which Ki [1] is on record?
**A.** Its Ki is 12.5 µM.

**Q.** What about the Ki [2] of the same compound?
**A.** Its Ki is 6.79 µM.

**Q.** And the Ki [3]?
**A.** Its Ki is 48.3 µM.

**Q.** And the Ki [4]?
**A.** The Ki was 14 µM.

**Q.** And the Ki [5]?
**A.** The Ki was 28 µM.

**Q.** What about the Ki [6] of the same compound?
**A.** The Ki was 5.77 µM.

**Q.** What about the Ki [7] of the same compound?
**A.** The Ki was 55.8 µM.

**Q.** And the Ki [8]?
**A.** The Ki was 17.8 µM.

**Q.** And the Ki [9]?
**A.** The Ki was 7.74 µM.

**Q.** What about the Ki [10] of the same compound?
**A.** The Ki was 64.5 µM.

**Q.** What about the Ki [11] of the same compound?
**A.** Its Ki is 3.5 µM.
